Counter-ions that a name gives are not always drawn. Like-named read-outs stand apart in the source and are kept apart here.
Experimental: Samples were prepared in triplicates for each concentration, n=3. All prepared samples were processed using LV-1 High Shear Fluid Processor “Microfluidizer” (Microfluidics, Newton, Mass.) equipped with G10Z reaction chamber under various pressures ranging from 15 to 30 KPsi for single or several passes. The microfluidizer-receiving coil was immersed in ice to reduce the heat produced during the process for heat-sensitive drugs. The particle size and potential of the produced nanosuspension were measured. The nanosuspension was centrifuged at 15,000 rpm and 15° C. for 30 minutes to collect the nanoparticles, and the solvent was then removed. The collected nanoparticles were completely dried by speed vacuum concentrator or lyophilization.
Nanoparticle Characterization: The particle size distribution and zeta potential of the nanosuspension was measured before and after size reduction by volume and by intensity using Mastersizer (Malvern) and Zetasizer Nano-ZS90 (Malvern), respectively. The average of 3 measurements for each sample was reported.

## CNC[C@H](O)c1ccc(O)c(O)c1 [epinephrine bitartrate, (−)-3,4-dihydroxy-α-[(methylamino)methyl]benzyl alcohol (+)-tartrate (1:1) salt]
0.7 mg/ml, 1 pass at 30 KPsi
  Mean ± SD particles size (Z-Average): 706 + 289 nm
0.7 mg/ml, 4 passes at 30 KPsi
  Mean ± SD particles size (Z-Average): 618 ± 267 nm
0.7 mg/ml, 5 passes at 30 KPsi
  Mean ± SD particles size (Z-Average): 539 ± 65 nm
0.7 mg/ml, 6 passes at 30 KPsi
  Mean ± SD particles size (Z-Average): 501 ± 34 nm
1.4 mg/ml, 1 pass at 30 KPsi
  Mean ± SD particles size (Z-Average): 665 + 47 nm
1.4 mg/ml, 2 passes at 30 KPsi
  Mean ± SD particles size (Z-Average): 339 ± 34 nm
1.4 mg/ml, 4 passes at 30 KPsi
  Mean ± SD particles size (Z-Average): 456 ± 40 nm
2.8 mg/ml, 1 pass at 30 KPsi
  Mean ± SD particles size (Z-Average): 249 + 38 nm
2.8 mg/ml, 2 passes at 30 KPsi
  Mean ± SD particles size (Z-Average): 827 ± 114 nm
2.8 mg/ml, 4 passes at 30 KPsi
  Mean ± SD particles size (Z-Average): 976 ± 163 nm
2.8 mg/ml, 5 passes at 30 KPsi
  Mean ± SD particles size (Z-Average): 1713 ± 36 nm
2.8 mg/ml, 6 passes at 30 KPsi
  Mean ± SD particles size (Z-Average): 1161 ± 127 nm
3.5 mg/ml, 1 pass at 30 KPsi
  Mean ± SD particles size (Z-Average): 1211 + 389 nm
3.5 mg/ml, 2 passes at 30 KPsi
  Mean ± SD particles size (Z-Average): 1418 ± 79 nm
4.5 mg/ml, 1 pass at 30 KPsi
  Mean ± SD particles size (Z-Average): 1091 + 43 nm
4.5 mg/ml, 2 passes at 30 KPsi
  Mean ± SD particles size (Z-Average): 1242 ± 28 nm

From patent US10251849B2, “Sublingual compositions including epinephrine nanoparticles” (NOVA SOUTHEASTERN UNIVERSITY, priority 2012, dated 2019)
